# Measurements taken from PubChem BioAssay (NCATS).
# Where “and” joins values, the source holds several entries; their conditions need not be identical. Identical values can stand only once. Only a part is listed here, and it is no random draw. Inconclusive results are not listed. Calls of active or inactive are those of the source. Calls come from the whole dose curve; as a rule, active = well fitted inhibition curve with a large enough effect; inconclusive = small, poorly fitted or top-dose-only effect; inactive = flat fitted curve, though single readings scatter.
# Tested on: CRL-7250
# Experiment: Cytotoxic Profiling of Annotated Libraries Using Quantitative High-Throughput Screening (AID 1296008); note: nearly all actives have a fitted effect of over 60% in size
# Settings: Five cell lines viability, CellTiter-Glo ATP luminescence, 48-72 h; hits give low values
# In short: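 Compounds were pin-transferred onto cells and incubated 48 or 72 hr at 37 degree Celsius, 95% humidity. CellTiter-Glo was added, plates sat 10 min at room temperature, then ATP-coupled luminescence was imaged as the viability read-out.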
# % is set by controls: 0 for no effect and ±100 for the full control effect.
SMILES,max response,outcome
CCC(=O)N(c1ccccc1)C1(COC)CCN(CCc2cccs2)CC1,inactive: -2.77%,
CN(CCCl)CCCl,inactive: -2.77% and inactive: 0.904%,
CCC(=O)N(c1ccccc1)C1(COC)CCN(CCn2nnn(CC)c2=O)CC1,,inactive
